Experimental data from ChEMBL document CHEMBL5728147, “Substituted aromatic n-heterocyclic compounds as inhibitors of mitogen-activated protein kinase interacting kinase 1 (MNK1) and 2 (MNK2)” (2020).

Amino acid sequences for entries named in this document (tags omitted). A change or cut given only in a name is not applied to a line headed by its entry.
UniProt Q9BUB5: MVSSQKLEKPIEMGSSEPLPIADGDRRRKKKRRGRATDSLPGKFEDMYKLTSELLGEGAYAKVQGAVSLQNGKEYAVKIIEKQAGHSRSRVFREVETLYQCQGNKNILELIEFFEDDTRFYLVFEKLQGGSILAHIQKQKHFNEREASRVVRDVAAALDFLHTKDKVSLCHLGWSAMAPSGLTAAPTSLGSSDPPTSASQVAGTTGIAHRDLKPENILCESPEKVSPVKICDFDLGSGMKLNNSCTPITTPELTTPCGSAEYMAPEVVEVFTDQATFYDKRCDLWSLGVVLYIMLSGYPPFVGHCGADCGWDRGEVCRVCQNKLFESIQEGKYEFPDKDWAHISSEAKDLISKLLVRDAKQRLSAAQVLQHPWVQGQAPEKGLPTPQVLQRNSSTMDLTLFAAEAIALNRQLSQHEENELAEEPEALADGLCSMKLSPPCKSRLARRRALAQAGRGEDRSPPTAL

Biological target: MAP kinase-interacting serine/threonine-protein kinase 1 (Homo sapiens, UniProt Q9BUB5)
Experiment: Inhibition Assay: The synthesized compounds then were tested for inhibition of the kinase activity (IC50) of Mnk1 and/or Mnk2 using the ADP monitoring assay for kinases described in Zegzouti, H.; Zdanovskaia, M.; Hsiao, K.; Goueli, S. A., ADP-Glo: A Bioluminescent and homogeneous ADP monitoring assay for kinases.

IC50: > 10 µM
Compound: N#Cc1cnc(-n2cnc3ccccc32)nc1OC1CCOCC1
